Each structure is given as a SMILES string. Some of the results follow. Activity calls are given as the source filed them.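 The calls were made as follows: active = diaphorase activity raised at least twofold by the compound at 20 µM; inactive = activation factor below 2.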

This assay in a line: compounds boosting diaphorase resazurin reduction – biochemical, uHTS, resorufin fluorescence, counter-screen for diaphorase-coupled primary assays, primary screen (AID 1229). The following applies: Diaphorase/resazurin coupled assay, 16 min, at 20 µM; stronger effect = higher value, 1 = vehicle wells, 0 = NADH-free wells. In a few lines:
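test system = bacterial diaphorase enzyme (C. kluyveri) | quantity = enzyme 0.07 U/mL final | reagent = NADH substrate 0.114 mM plus resazurin dye 0.1 mM, final | incubation = 16 min enzyme reaction, ambient temperature | buffer or medium = HEPES pH 7.4 buffer with MgCl2 and Tween 20 | signal = fluorescence of resorufin, 544 nm excitation, 590 nm emission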
For orientation: The colour change of resazurin is a common sign of viable cells or microbes.
Regarding `CCOP(C)(=S)SCC(=O)NC(C)C(=O)O` (centres undefined), the activation factor was inactive: 0.8.

`CCOC(=O)c1ccc(NP(C)(=O)Oc2ccc(OC)cc2)cc1` (centres undefined): the activation factor result is “inactive”.

In the case of `CP(=O)(Nc1ccccn1)Oc1ccc(Cl)cc1` (centres undefined), the activation factor is inactive: 1.1.

`CP(=O)(Oc1ccccc1)OC(c1ccccc1)C(F)(F)F` (centres undefined): the activation factor result was “inactive”.

In the case of `Cc1cccc(C)c1OP(C)(=O)Nc1ccc(SC(F)(F)F)cc1` (centres undefined), the activation factor is inactive: 0.7.

As for `Cc1cc(C)cc(OP(C)(=O)Nc2ccc(SC(F)(F)F)cc2)c1` (centres undefined), the activation factor is inactive: 0.7.

On to `CP(=O)(NC(=O)Nc1ccccc1)Oc1ccccc1` (centres undefined), for which the activation factor result was “inactive”.

Take `O=C(COc1ccccc1)OC1CN2CCC1CC2` (centres undefined): the activation factor entry is “inactive”.

With `CP(=S)(Nn1cnnc1)Oc1ccccc1` (centres undefined), the activation factor result was “inactive”.

On to `COc1ccccc1OP(C)(=O)Nc1ccccc1` (centres undefined), for which the activation factor entry is “inactive”.

In the case of `CP(=O)(Nc1ccccc1Br)Oc1ccccc1` (centres undefined), the activation factor result is “inactive”.

For `Cc1cc(SC(NC(=O)c2ccccc2)C(Cl)(Cl)Cl)nc(C(C)C)n1` (centres undefined), the activation factor result is “inactive”.

With `ClCCSc1nnc(-c2cccnc2)o1`, the activation factor result was “inactive”.

For `CCOC(=O)c1ccc(NP(C)(=O)Oc2ccccc2)cc1` (centres undefined), the activation factor result is “inactive”.

As to `Cc1ccc(NP(C)(=O)Oc2ccccc2)c(C)c1` (centres undefined), the activation factor was inactive: 1.

`COc1ccccc1OP(C)(=O)Nc1ccc(C)cc1` (centres undefined): the activation factor was inactive: 0.8.

As for `O=[N+]([O-])c1cc([N+](=O)[O-])c(-c2ccn[nH]2)s1`, the activation factor entry was “inactive”.

Turning to `COc1ccc(OP(C)(=O)Nc2cccc(F)c2)cc1` (centres undefined), the activation factor was inactive: 1.

As to `CC(C)NC(=O)NP(=O)(Oc1ccccc1)Oc1ccccc1`, the activation factor entry was “inactive”.

Regarding `COc1ccccc1OP(C)(=O)Nc1cc(Cl)ccc1C` (centres undefined), the activation factor entry was “inactive”.

As to `Cc1cc(C)cc(OP(C)(N)=O)c1` (centres undefined), the activation factor entry was “inactive”.

As for `Cc1cccc(C)c1OP(C)(N)=O` (centres undefined), the activation factor was inactive: 1.1.

In the case of `CC(C)(C)c1ccc(OP(C)(=O)Nc2ccc(SC(F)(F)F)cc2)cc1` (centres undefined), the activation factor is inactive: 0.7.

As for `O=[N+]([O-])c1ccc2c(c1)C=Nc1ccccc1O2`, the activation factor entry was “inactive”.

On to `CCN(CC)CCCOC(=O)C(O)(c1ccccc1)c1ccccc1`, for which the activation factor result is “inactive”.

Take `COc1ccc2nc(NP(=O)(c3ccccc3)c3ccccc3)sc2c1`: the activation factor result was “inactive”.

On to `CP(=O)(Nc1cccc(Br)c1)Oc1ccccc1` (centres undefined), for which the activation factor was inactive: 0.8.

`Cc1cc(C)cc(OP(C)(=O)Nc2ccccn2)c1` (centres undefined): the activation factor entry is “inactive”.

Regarding `Cc1ccc(C)c(NP(C)(=O)Oc2ccccc2)c1` (centres undefined), the activation factor is inactive: 1.

On to `CCOP(=O)(Nc1cccc2ccccc12)OCC`, for which the activation factor result was “inactive”.

Take `COc1cc(C(=O)NCC2(N3CCOCC3)CCCCC2)cc(Cl)c1OC(C)C`: the activation factor entry is “inactive”.

`Cc1cc(C)cc(OP(C)(=O)Nc2ccc(C)cc2C)c1` (centres undefined): the activation factor entry is “inactive”.

With `Cc1cccc(OCC(=O)OC2CN3CCC2CC3)c1` (centres undefined), the activation factor result was “inactive”.

Turning to `CCOC(=O)c1ccc(NP(C)(=O)Oc2cc(C)cc(C)c2)cc1` (centres undefined), the activation factor was inactive: 1.

With `CCOP1(=S)c2c(C)nn(CCC#N)c2N=C(c2ccc(F)cc2)N1C` (centres undefined), the activation factor result was “inactive”.

For the compound `CC1=NCCc2c1[nH]c1ccccc21.O=[N+]([O-])c1cc([N+](=O)[O-])c(O)c([N+](=O)[O-])c1`, the activation factor was inactive: 1.1.

For `O=[N+]([O-])c1ccc2c(c1)nnn2O`, the activation factor result was “inactive”.

As for `O=P(Nc1nccs1)(c1ccccc1)c1nc2ccccc2s1` (centres undefined), the activation factor result is “inactive”.

Take `CCOP1(=S)c2c(C)nn(CCC#N)c2N=C(c2ccccc2F)N1C` (centres undefined): the activation factor result was “inactive”.

With `CN1CCCCC1COC(=O)C1(O)c2ccccc2CCc2ccccc21` (centres undefined), the activation factor result is “inactive”.

In the case of `COc1ccccc1OP(C)(=O)Nc1c(C)cccc1C` (centres undefined), the activation factor entry was “inactive”.

In the case of `CP(=O)(Nc1ccc(SC(F)(F)F)cc1)Oc1ccccc1` (centres undefined), the activation factor was inactive: 1.

For the compound `CCCOc1ccc(NP(C)(=O)Oc2ccc(Cl)cc2)cc1` (centres undefined), the activation factor was inactive: 1.

In the case of `Cc1ccc(OCC(=O)OC2CN3CCC2CC3)cc1` (centres undefined), the activation factor result was “inactive”.

With `CN(C)C1(CNC(=O)c2ccc(S(C)(=O)=O)cc2)CCCCC1`, the activation factor result is “inactive”.

With `Cc1nc2ccc3ccccc3c2s1.O=[N+]([O-])c1cc([N+](=O)[O-])c(O)c([N+](=O)[O-])c1`, the activation factor result is “inactive”.

Turning to `O=[N+]([O-])c1cc([N+](=O)[O-])c(-n2nnc3ccccc32)c([N+](=O)[O-])c1`, the activation factor result is “inactive”.

On to `O=P1(Nc2ccccn2)COc2ccccc2OC1`, for which the activation factor result was “inactive”.

Take `CP(=O)(Nc1ccc2c(c1)OCCO2)Oc1ccccc1` (centres undefined): the activation factor result was “inactive”.

On to `Cc1ccccc1NP(C)(=O)Nc1ccccc1C`, for which the activation factor is inactive: 1.

`CC(C)C(=O)NC(Sc1ccccc1)C(Cl)(Cl)Cl` (centres undefined): the activation factor result is “inactive”.

For the compound `c1nnnn1CCn1cnnn1`, the activation factor entry was “inactive”.

Regarding `CCOP(C)(=S)SCC(=O)NC(C)(CC)C(=O)O` (centres undefined), the activation factor result was “inactive”.

Turning to `O=[N+]([O-])c1cc([N+](=O)[O-])c(NCC2CCS(=O)(=O)C2)c([N+](=O)[O-])c1` (centres undefined), the activation factor was inactive: 0.8.

For the compound `CC(=O)NC(SC(=S)N(C)C)C(Cl)(Cl)Cl` (centres undefined), the activation factor entry was “inactive”.

`COc1ccc(OP(C)(=O)Nc2cccc(Br)c2)cc1` (centres undefined): the activation factor entry was “inactive”.

Turning to `COc1ccc(NP(C)(=O)Oc2ccccc2OC)cc1` (centres undefined), the activation factor is inactive: 1.

In the case of `CN(C)CCOC(=O)C(O)(c1ccccc1)C1CCCCC1` (centres undefined), the activation factor is inactive: 1.

In the case of `CCC(=O)N1C2C3N(C(=O)CC)C1C1N(C(=O)CC)C(C(N1C(=O)CC)N3C(=O)CC)N2C(=O)CC`, the activation factor result is “inactive”.

Turning to `CCN(CC)CCCOC(=O)C(O)(c1ccccc1)C1CCCCC1` (centres undefined), the activation factor is inactive: 1.

On to `Cc1ccc(OP(=O)(Nc2ccccn2)Oc2ccc(C)cc2)cc1`, for which the activation factor result was “inactive”.

For `CC(=O)NC(SC(=S)N(CC(C)C)CC(C)C)C(Cl)(Cl)Cl` (centres undefined), the activation factor result is “inactive”.

Regarding `COC(=O)c1cc2c(s1)N=C(c1ccccc1)N(C)P2(=O)N1CCOCC1` (centres undefined), the activation factor result is “inactive”.

Turning to `CP(=O)(Nc1ccccc1)Oc1ccc(F)cc1` (centres undefined), the activation factor was inactive: 1.

In the case of `CCOC(=O)NC(Sc1ccccc1)C(Cl)(Cl)Cl` (centres undefined), the activation factor entry is “inactive”.

Take `CCNC(=S)/N=C(\N)N[N+](=O)[O-]`: the activation factor entry is “inactive”.

With `COc1ccc(OP(C)(=O)Nc2ccc(SC(F)(F)F)cc2)cc1` (centres undefined), the activation factor is inactive: 1.

Regarding `CCOC(=O)c1ccc(NP(C)(=O)Oc2ccc(F)cc2)cc1` (centres undefined), the activation factor is inactive: 1.

For `O=C(OCCN1CCN(CCOCc2ccccc2)CC1)C(O)(c1ccccc1)c1ccccc1`, the activation factor result was “inactive”.

`O=P1(Nc2nc3ccc(Cl)cc3s2)COc2ccccc2O1` (centres undefined): the activation factor entry was “inactive”.

As to `CC(C)c1ccc(OP(C)(=O)Nc2ccc(SC(F)(F)F)cc2)cc1` (centres undefined), the activation factor was inactive: 0.7.

With `CC(C)(C)C(=O)NC(Sc1ccccc1)C(Cl)(Cl)Cl` (centres undefined), the activation factor result is “inactive”.

With `CP(=O)(Nc1ccccc1F)Oc1ccccc1` (centres undefined), the activation factor was inactive: 1.

As for `O=[N+]([O-])c1cc([N+](=O)[O-])c(Nc2ccccn2)c([N+](=O)[O-])c1`, the activation factor result is “inactive”.

Values taken from PubChem BioAssay AID1229 (Sanford-Burnham Center for Chemical Genomics, 2008).
